# Values of other authors, collected in US11173135B2 (Thiogenesis Therapeutics, Inc., priority 2016, dated 2021).
# “Also recorded” adds a separate entry of the source.
# Experiments:
# cystinosis patients = settings: high doses; cited from earlier work
# [1] = test system: Plasmodium berghei ANKA strain; settings: mice infected with Plasmodium berghei ANKA; cited from earlier work
smiles,measurement,setting,value
CC(C)(CO)[C@@H](O)C(=O)NCCC(=O)NCCSSCCNC(=O)CCNC(=O)[C@H](O)C(C)(C)CO [pantethine],excretion in the stool,cystinosis patients,most of the dose was excreted in the stool; also recorded: much of the pantethine was excreted unchanged in the stool
same,cerebral syndrome,[1],prevents the cerebral syndrome
